In ChEMBL document CHEMBL1122206, “Use of adenine nucleotide derivatives to assess the potential of exo-active-site-directed reagents as species- or isozyme-specific enzyme inactivators. 5. Interactions of adenosine 5'-triphosphate derivatives with rat pyruvate kinases, Escherichia coli thymidine kinase, and yeast and rat …” (1982) one finds Relative affinity and inhibition data, which are given here for one compound.

A short description of test [1]: Realtive affinity expressed as KM (ATP or ADP)/ Ki of inhibitor.
In test [2] the target is T1, Hexokinase-1 (Rattus norvegicus) (UniProt P05708).
T1 sequence (whole entry): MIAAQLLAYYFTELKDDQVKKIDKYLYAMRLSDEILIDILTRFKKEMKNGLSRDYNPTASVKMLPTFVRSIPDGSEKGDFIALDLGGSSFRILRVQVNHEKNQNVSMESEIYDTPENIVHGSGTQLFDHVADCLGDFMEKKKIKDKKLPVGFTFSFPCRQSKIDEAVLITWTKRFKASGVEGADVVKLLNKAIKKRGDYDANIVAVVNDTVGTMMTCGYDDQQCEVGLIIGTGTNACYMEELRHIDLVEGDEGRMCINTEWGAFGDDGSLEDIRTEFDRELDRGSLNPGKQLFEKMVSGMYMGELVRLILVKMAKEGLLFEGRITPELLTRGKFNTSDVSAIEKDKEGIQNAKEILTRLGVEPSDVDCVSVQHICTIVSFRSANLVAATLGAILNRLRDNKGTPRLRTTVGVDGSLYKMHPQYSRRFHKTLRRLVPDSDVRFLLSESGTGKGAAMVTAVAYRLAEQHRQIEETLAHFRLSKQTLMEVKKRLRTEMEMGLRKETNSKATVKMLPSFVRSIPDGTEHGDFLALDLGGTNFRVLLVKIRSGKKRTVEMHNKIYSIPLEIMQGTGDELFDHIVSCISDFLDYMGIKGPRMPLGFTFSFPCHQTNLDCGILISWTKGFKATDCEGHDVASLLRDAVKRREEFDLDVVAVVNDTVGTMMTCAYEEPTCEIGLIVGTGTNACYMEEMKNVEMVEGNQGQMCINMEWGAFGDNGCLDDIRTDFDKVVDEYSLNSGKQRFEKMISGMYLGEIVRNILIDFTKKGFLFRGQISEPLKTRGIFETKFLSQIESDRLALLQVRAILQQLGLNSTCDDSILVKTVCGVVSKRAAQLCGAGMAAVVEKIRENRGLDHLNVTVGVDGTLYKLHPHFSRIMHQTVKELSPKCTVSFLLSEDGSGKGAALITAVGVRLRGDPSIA
Kind of test: Time dependent inhibition of Hexokinase type I activity after 6 h, at 22 degrees celsius, at 5 mM compound.

For test [3], the system named is Hexokinase (Saccharomyces cerevisiae). Put plainly: Compound was tested for time dependent inhibition of hexokinase activity after 6 hr, at 0 degrees celsius, with 10 mM ATP derivative in yeast hexokinase.

Compound `O=C(CI)NCCCCCCNc1ncnc2c1ncn2[C@@H]1O[C@H](COP(=O)(O)OP(=O)(O)OP(=O)(O)O)[C@@H](O)[C@H]1O` returned a Relative affinity in test [1] of 0.28. The inhibition in test [2] and in test [3] was 23% throughout.

One may read the inhibition as how much of the control response was suppressed.
